Data from patent US9826734B2, “Etherified lactate esters, method for the production thereof and use thereof for enhancing the effect of plant protecting agents” (Clariant International Ltd., priority 2011, dated 2017).

Tested on: leaf cuticles of apple
Assay: Membrane penetration of tebuconazole (SC430) through isolated apple leaf cuticles
Type: in vitro ADME
Conditions: 0.5 g/l tebuconazole (SC 430)

| Substance | Mean penetration of tevuconazole in % (0.5 g/l etherified lactate ester, 24 h, 20° C./60% RH) [%] | Mean penetration of tevuconazole in % (0.5 g/l etherified lactate ester, 48 h, 30° C./60% RH) [%] | Mean penetration of tevuconazole in % (2 g/l etherified lactate ester, 24 h, 20° C./60% RH) [%] | Mean penetration of tevuconazole in % (2 g/l etherified lactate ester, 48 h, 30° C./60% RH) [%] |
| --- | --- | --- | --- | --- |
| Lauryl lactate 5EO/5PO | 36.9 | 36.9 |  |  |
| 2-ethylhexyl lactate 2EO |  |  | 42.1 | 42.1 |
